Patent US12673951B2, “Substituted pyrazoloquinazolinone compounds and application thereof” (IMPACT THERAPEUTICS (SHANGHAI), INC, priority 2019, dated 2026)

Chains of the proteins cited; added tags and fusions are not shown. Lines headed by an entry give the natural chain unless they say otherwise; changes in a name come on top.
UniProt Q13315: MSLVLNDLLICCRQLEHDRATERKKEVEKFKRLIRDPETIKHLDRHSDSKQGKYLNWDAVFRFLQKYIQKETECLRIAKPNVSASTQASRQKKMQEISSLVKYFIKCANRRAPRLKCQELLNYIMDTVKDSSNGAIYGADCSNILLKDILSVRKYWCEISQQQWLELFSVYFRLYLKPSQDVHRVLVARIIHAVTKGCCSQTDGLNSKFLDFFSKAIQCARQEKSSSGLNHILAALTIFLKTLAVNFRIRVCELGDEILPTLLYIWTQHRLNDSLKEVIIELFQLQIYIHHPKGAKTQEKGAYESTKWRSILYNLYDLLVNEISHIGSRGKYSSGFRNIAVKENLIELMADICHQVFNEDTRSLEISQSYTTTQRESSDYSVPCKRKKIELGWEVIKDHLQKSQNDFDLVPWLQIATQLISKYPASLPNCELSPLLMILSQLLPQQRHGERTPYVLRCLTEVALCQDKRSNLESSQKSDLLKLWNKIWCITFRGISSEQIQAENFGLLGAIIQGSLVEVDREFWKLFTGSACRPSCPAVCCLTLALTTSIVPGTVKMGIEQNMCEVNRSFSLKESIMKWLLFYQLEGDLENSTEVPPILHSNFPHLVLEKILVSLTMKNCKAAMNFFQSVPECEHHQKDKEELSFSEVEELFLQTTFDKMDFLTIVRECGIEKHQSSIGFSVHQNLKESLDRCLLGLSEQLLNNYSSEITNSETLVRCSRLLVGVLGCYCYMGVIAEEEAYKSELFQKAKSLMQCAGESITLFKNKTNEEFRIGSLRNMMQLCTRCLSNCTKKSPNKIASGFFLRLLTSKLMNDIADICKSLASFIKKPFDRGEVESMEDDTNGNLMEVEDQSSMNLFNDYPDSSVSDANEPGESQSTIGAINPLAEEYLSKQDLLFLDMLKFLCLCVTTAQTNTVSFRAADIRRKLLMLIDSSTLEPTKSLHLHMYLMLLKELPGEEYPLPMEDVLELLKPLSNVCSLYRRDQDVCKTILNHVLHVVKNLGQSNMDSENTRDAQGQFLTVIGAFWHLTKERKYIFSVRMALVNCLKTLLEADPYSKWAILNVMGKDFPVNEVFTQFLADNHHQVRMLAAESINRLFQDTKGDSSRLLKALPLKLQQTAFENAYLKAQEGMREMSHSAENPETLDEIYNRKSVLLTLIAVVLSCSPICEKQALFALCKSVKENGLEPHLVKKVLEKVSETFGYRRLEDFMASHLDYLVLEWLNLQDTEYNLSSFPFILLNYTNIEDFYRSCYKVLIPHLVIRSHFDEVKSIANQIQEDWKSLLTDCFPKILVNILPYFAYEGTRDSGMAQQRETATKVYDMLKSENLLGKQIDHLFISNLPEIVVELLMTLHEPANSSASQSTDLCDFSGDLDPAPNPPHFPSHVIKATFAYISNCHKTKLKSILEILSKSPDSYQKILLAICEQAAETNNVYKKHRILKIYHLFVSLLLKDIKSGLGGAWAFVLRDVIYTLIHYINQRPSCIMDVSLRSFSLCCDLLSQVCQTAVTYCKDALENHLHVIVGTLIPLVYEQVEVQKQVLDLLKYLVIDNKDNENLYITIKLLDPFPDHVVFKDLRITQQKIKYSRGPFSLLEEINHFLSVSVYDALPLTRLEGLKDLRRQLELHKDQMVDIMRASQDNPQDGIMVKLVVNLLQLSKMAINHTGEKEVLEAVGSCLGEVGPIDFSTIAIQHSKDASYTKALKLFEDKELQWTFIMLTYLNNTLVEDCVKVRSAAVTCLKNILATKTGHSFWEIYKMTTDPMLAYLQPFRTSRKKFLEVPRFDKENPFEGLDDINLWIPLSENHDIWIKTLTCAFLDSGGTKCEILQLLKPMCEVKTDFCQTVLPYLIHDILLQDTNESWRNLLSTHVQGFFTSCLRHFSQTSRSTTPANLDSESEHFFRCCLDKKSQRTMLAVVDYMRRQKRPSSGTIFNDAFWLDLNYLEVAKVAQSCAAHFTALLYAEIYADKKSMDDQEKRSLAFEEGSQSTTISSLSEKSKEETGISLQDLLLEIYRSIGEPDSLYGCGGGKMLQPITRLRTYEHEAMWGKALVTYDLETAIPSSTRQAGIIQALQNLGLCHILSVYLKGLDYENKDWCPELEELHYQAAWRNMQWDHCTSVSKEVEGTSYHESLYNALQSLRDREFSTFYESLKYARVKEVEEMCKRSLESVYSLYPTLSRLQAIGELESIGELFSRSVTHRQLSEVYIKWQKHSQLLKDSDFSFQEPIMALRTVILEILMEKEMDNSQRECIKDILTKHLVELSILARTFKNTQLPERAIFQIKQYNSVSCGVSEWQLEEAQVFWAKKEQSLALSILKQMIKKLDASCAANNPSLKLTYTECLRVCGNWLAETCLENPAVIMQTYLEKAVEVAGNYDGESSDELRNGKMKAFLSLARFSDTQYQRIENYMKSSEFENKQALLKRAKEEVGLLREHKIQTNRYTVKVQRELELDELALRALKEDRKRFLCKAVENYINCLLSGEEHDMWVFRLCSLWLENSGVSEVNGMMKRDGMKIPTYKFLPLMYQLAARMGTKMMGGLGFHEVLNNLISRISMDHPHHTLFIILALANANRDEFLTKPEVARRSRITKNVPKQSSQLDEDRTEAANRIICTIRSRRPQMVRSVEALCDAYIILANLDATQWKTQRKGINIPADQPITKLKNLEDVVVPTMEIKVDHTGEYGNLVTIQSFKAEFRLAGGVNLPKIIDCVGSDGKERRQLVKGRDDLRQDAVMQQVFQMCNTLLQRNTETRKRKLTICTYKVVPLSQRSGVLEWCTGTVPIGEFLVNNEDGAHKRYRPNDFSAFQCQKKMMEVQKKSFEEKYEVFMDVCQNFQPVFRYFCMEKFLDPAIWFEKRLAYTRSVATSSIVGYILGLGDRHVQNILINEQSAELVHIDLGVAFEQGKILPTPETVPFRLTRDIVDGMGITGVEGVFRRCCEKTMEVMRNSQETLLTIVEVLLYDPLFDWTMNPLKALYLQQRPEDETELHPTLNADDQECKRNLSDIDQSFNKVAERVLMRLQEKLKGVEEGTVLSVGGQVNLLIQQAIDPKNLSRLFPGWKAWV

Molecular target: T1, ATM enzyme (Homo sapiens, UniProt Q13315)
T1 construct: purchased Eurofins 14-933
Test: ATM kinase assay (HTRF)
Type: biochemical
Settings: 0.5 h, read-out: Inh (%) ATM kinase inhibition rate
Method: The mixture was centrifuged at 1000 rpm for 1 minute, and reacted at room temperature away from light for 30 minutes. Then 5 μL of EDTA stop solution (250 mM) was added to stop the reaction. After 5 μL of detection mixture (Anti-phospho-p53 (ser15)-K (Cisbio, #61P08KAE, 0.084 ng/μL) and Anti-GST-d2 (Cisbio, #61GSTDLA, 5.00 ng/μL)) was finally added to each well, then incubate the plate overnight at room temperature.
Relative fluorescence ratio was calculated: Ratio665 nm/615 nm-Ratiobackground, and inhibition rate %=(1−(relative fluorescence ratio of test compound well−relative fluorescence ratio of positive control well)/(relative fluorescence ratio of negative control well−relative fluorescence ratio of positive control well))×100 was calculated. Data were analyzed using GraphPad Prism6.0, and fitted using the curve equation: Y=Bottom+(Top−Bottom)/(1+10^((Log IC50−X)×HillSlope)) and IC50 values were calculated.

Row | Compound | inhibition at 0.1 µM | inhibition at 1 µM | inhibition at 10 µM
1 | CC(C)c1c(=O)n(C)n2cnc3ccc(-c4ccc(OCCCN(C)C)nc4)cc3c12 [Example 19, 9-(6-(3-(dimethylamino)propoxy)pyridin-3-yl)-1-isopropyl-3-methylpyrazolo[1,5-c]quinazolin-2(3H)-one] | 74% | 95% | 100%
2 | CC(C)c1c(=O)n(C)n2cnc3ccc(-c4ccc(OCCCN5CCCCC5)nc4)cc3c12 [Example 20, 9-(6-(3-(piperidin-1-yl)propoxy)pyridin-3-yl)-1-isopropyl-3-methyl-pyrazolo[1,5-c]quinazolin-2(3H)-one] | 71% | 97% | 98%
3 | CC(C)c1c(=O)n(C)n2cnc3ccc(-c4ccc(N5CCC(N(C)C)CC5)c(F)c4)cc3c12 [Example 21, 9-(4-(4-(dimethylamino)piperidin-1-yl)-3-fluorophenyl)-1-isopropyl-3-methylpyrazolo[1,5-c]quinazolin-2(3H)-one] | 60% | 97% | 100%
4 | CC(C)c1c(=O)n(C)n2cnc3ccc(-c4ccc(N5CCC(N(C)C)CC5)c(Cl)c4)cc3c12 [Example 22, 9-(3-chloro-4-(4-(dimethylamino)piperidin-1-yl)phenyl)-1-isopropyl-3-methylpyrazolo[1,5-c]quinazolin-2(3H)-one] | 51% | 93% | 99%
5 | CC(C)c1c(=O)n(C)n2cnc3ccc(-c4ccc(N5CCC(N(C)C)CC5)c(C(F)(F)F)c4)cc3c12 [Example 23, 9-(4-(4-(dimethylamino)piperidin-1-yl)-3-(trifluoromethyl)phenyl)-1-isopropyl-3-methylpyrazolo[1,5-c]quinazolin-2(3H)-one] | 26% | 95% | 100%
6 | CC(C)c1c(=O)n(C)n2cnc3ccc(-c4ccc(OCCCN(C)C)c(F)c4)cc3c12 [Example 24, 9-(4-(3-(dimethylamino)propoxy)-3-fluorophenyl)-1-isopropyl-3-methylpyrazolo[1,5-c]quinazolin-2(3H)-one] | – | – | 98%
7 | CC(C)c1c(=O)n(C)n2cnc3ccc(-c4ccc(OCCCN(C)C)c(C(F)(F)F)c4)cc3c12 [Example 25, 9-(4-(3-(dimethylamino)propoxy)-3-(trifluoromethyl)phenyl)-1-isopropyl-3-methylpyrazolo[1,5-c]quinazolin-2(3H)-one] | 35% | 98% | 100%
